Experimental data reported in patent US20160193216A1 (Nimbus Iris, Inc., priority 2012, published 2016).

The chains behind the UniProt entries cited, without tags or fusion partners.
UniProt Q9NWZ3, whole entry: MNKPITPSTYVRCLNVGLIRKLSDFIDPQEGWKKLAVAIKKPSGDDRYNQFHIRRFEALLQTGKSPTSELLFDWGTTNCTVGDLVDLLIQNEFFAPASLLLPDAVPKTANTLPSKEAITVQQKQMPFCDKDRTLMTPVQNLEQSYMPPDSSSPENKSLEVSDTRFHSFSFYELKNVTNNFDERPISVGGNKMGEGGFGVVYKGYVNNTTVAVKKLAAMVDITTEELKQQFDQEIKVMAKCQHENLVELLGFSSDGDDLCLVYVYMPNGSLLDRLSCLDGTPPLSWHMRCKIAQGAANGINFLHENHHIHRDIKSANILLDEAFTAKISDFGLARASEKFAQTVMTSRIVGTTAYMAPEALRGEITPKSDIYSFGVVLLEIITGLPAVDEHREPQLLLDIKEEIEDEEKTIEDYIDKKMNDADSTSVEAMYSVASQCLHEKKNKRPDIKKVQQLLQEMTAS

Target: IRAK4 (Homo sapiens, UniProt Q9NWZ3)
Assay: IRAK-4 activity inhibition assay (Caliper)
Assay type: biochemical
Details: read-out: IRAK-4 activity inhibition IC50; 37 μM ATP, 3.5 nM IRAK4

CNC(=O)CNC(=O)C[C@H]1CCc2sc3ncnc(O[C@H]4CC[C@H](N(C)C)CC4)c3c21
IC50: < 5 µM
